# Test results from article PMC11187553 (RSC Medicinal Chemistry, 2024).
# System: SH-SY5Y cells
# Experiment: Cytotoxic effects in SH-SY5Y cells
# Format: cell-based, human
# Details: 0.1-100 μM, 24, 48 or 72 h
structure (smiles),measurement,value
"CC1=C(NCc2ccc(C(=O)Nc3ccccc3N)cc2)C(=O)c2ccccc2C1=O [Compound 6, N-(2-Aminophenyl)-4-(((3-methyl-1,4-dioxo-1,4-dihydronaphthalen-2-yl)amino)methyl)benzamide]",cytotoxicity (in words),highest cytotoxicity
